Molecular target: Vasopressin V1a receptor (Homo sapiens) (UniProt P37288)
Test: Antagonist activity at human V1a receptor transfected in HEK293 cells at 1 uM relative to control
Type: functional, cell-based
Design: scale not given: the % may be the effect or the level left
Details: filed as antagonist

By UniProt entry, the sequences of proteins in these tests, tags left out.
UniProt P37288, whole entry, looked up: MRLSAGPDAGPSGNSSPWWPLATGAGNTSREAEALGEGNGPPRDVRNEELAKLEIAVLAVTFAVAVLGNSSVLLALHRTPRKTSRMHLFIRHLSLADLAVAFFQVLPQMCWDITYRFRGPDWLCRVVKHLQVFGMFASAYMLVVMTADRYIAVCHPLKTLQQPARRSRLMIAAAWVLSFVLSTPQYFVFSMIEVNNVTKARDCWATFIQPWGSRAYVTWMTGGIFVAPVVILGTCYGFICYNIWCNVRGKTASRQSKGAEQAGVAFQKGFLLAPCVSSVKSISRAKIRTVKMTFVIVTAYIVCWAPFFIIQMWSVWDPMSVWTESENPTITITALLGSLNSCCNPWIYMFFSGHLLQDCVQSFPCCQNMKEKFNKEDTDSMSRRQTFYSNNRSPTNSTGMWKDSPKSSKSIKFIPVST

CCOc1ccc(C[C@H]2NC(=O)CCSSC[C@@H](C(=O)N3CCC[C@H]3C(=O)N[C@@H](CCCN)C(=O)NCC(N)=O)NC(=O)[C@H](CC(N)=O)NC(=O)[C@H]([C@@H](C)O)NC(=O)[C@H]([C@@H](C)CC)NC2=O)cc1
Activity: 86%
